Activity calls are given as the source filed them. No cut-off for these calls is given here.
Experiments:
[1] = target: Aminopeptidase A (Rattus norvegicus) (UniProt P50123); conditions: dose 2.0 mg/kg, route iv, time 30.0 min
[2] = target: Aminopeptidase A (Rattus norvegicus) (UniProt P50123); conditions: dose 2.0 mg/kg, route iv, time 30.0 min; remark: listed apart in the source
[3] = target: Aminopeptidase A (Rattus norvegicus) (UniProt P50123); conditions: dose 2.0 mg/kg, route iv, time 30.0 min; remark: listed apart in the source
[4] = target: Aminopeptidase A (Rattus norvegicus) (UniProt P50123); conditions: dose 100.0 mg/kg, route iv, time 30.0 min
[5] = target: Aminopeptidase A (Rattus norvegicus) (UniProt P50123); conditions: dose 100.0 mg/kg, route iv, time 30.0 min; remark: listed apart in the source
[6] = target: Aminopeptidase A (Rattus norvegicus) (UniProt P50123); conditions: dose 100.0 mg/kg, route iv, time 30.0 min; remark: listed apart in the source

Protein sequences, listed by entry. Tags and fused reporters are not part of them.
UniProt P50123, whole entry: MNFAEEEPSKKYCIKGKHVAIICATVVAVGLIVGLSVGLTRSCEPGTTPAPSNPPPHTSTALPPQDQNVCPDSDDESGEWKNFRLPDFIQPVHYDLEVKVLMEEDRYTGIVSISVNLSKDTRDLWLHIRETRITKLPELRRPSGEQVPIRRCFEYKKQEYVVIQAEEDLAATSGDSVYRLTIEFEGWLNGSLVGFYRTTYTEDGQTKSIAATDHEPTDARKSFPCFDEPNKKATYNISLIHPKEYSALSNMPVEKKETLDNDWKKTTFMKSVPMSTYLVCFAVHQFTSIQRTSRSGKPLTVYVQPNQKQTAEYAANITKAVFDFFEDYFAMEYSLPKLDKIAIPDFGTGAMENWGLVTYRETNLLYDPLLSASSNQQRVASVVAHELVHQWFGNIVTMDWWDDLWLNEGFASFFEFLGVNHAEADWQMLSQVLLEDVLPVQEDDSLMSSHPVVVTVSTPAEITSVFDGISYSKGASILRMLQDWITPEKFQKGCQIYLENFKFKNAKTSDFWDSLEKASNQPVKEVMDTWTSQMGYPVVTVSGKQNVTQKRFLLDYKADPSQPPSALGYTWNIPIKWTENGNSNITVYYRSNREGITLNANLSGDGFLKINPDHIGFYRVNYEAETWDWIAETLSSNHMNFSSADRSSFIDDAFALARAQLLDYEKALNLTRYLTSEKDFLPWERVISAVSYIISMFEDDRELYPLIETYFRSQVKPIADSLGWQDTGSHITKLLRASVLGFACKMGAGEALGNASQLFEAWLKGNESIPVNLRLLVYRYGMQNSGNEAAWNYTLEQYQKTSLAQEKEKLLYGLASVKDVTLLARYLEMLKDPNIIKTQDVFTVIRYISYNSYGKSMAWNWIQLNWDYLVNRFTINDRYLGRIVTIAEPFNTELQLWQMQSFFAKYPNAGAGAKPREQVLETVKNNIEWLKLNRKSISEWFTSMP

inhibition [1] [%] | inhibition [2] [%] | inhibition [3] [%] | inhibition [4] | inhibition [5] | inhibition [6] [%] | SMILES
66 | 78 | 71 | – | – | – | COc1ccccc1CCP(=O)(O)[C@@H](N)CCC(=O)O
– | – | – | inactive | inactive | 83 | N[C@@H](CCS(=O)(=O)O)CSSC[C@@H](N)CCS(=O)(=O)O

Source: ChEMBL document CHEMBL6074628, “Rational design, synthesis and pharmacological characterization of novel aminopeptidase A inhibitors” (Bioorg Med Chem Lett, 2024)
